Measurements reported in PMC12097015, “Development of MDM2‐Targeting PROTAC for Advancing Bone Regeneration” (Advanced Science, 2025).

Test system: rabbit calvaria
Test: Rabbit calvarial vertical onlay graft model
Assay type: in vivo, New Zealand white rabbits
Settings: eight weeks, CL144 10 μΜ or rhBMP‐2 3.85 μΜ soaked on BCP carrier
Text: ‐Establishment of Vertical Onlay Graft Rabbit Model: The experimental protocol was approved by the Institutional Animal Care and Use Committee of Yonsei Medical Center, Seoul, Korea (IACUC Approval No. 2024–0146). Total six male, New Zealand white rabbits, weighing ≈2.8–3.2 kg were used for the rabbit calvaria onlay graft model. Rabbits were kept in separate cages under standard laboratory conditions with free access to food and water and provided standard meals according to the ARRIVE guidelines. The animals were sacrificed eight weeks postoperatively (n = 6), and each rabbit was divided into three different groups. Commercially available rhBMP‐2 were used for the positive control (Cowellmedi, Korea). CL144 and BMP‐2 solutions (200 µg) were soaked onto 0.1 g a biphasic calcium phosphate carrier (BCP; Osteon III; Genoss, Korea) for 10 min before grafting. […]
‐Radiographic analysis: A single‐blinded examiner conducted all the measurements. […] The volume of the newly formed bone within the cylinders was measured.
‐Histologic analysis: Specimens were decalcified in Calci‐Clear Rapid (National Diagnostics, 305 Patton Drive, USA) for two weeks. […] Within the cylinder, the total augmented area, area and proportion of newly formed bone, and residual graft materials were measured as previously described.^[ [34] ^]

rhBMP‐2: recombinant human bone morphogenetic protein-2, positive control
amount of new bone (histomorphometric analysis): 35.29 ± 7.67%
new bone volume (micro‐CT) (n = 6): 48.07 ± 6.66 mm^3
